Experimental data as given in patent US9657003B2, “Androgen receptor modulating compounds” (ORION CORPORATION, priority 2009, dated 2017).

Protein sequences, listed by entry. Tags and fused reporters are not part of them. Lines headed by an entry give the natural chain unless they say otherwise; changes in a name come on top.
UniProt P10275: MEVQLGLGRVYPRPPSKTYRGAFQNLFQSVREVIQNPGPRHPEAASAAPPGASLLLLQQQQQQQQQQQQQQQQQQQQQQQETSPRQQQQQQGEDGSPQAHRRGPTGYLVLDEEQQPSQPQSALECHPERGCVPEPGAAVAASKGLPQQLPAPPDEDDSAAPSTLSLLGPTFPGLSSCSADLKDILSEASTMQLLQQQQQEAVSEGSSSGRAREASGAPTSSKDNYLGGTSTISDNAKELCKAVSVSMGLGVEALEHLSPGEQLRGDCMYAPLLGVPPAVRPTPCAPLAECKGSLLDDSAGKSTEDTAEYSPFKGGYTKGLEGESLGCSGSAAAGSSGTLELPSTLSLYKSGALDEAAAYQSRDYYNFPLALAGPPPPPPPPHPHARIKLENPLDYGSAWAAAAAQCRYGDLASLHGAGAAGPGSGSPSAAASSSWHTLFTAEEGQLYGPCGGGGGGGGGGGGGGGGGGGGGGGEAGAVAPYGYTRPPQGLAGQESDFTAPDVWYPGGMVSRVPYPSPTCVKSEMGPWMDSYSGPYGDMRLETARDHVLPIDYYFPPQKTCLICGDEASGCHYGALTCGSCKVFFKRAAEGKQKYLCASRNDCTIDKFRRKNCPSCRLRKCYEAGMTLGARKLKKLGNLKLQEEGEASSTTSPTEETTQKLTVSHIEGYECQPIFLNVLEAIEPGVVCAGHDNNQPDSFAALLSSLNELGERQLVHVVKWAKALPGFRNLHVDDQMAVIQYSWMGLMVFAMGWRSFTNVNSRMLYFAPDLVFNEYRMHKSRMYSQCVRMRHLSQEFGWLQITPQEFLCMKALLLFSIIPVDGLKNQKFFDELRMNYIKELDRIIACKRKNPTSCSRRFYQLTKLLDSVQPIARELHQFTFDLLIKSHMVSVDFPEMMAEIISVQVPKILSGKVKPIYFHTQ
UniProt P15207, whole entry S389L: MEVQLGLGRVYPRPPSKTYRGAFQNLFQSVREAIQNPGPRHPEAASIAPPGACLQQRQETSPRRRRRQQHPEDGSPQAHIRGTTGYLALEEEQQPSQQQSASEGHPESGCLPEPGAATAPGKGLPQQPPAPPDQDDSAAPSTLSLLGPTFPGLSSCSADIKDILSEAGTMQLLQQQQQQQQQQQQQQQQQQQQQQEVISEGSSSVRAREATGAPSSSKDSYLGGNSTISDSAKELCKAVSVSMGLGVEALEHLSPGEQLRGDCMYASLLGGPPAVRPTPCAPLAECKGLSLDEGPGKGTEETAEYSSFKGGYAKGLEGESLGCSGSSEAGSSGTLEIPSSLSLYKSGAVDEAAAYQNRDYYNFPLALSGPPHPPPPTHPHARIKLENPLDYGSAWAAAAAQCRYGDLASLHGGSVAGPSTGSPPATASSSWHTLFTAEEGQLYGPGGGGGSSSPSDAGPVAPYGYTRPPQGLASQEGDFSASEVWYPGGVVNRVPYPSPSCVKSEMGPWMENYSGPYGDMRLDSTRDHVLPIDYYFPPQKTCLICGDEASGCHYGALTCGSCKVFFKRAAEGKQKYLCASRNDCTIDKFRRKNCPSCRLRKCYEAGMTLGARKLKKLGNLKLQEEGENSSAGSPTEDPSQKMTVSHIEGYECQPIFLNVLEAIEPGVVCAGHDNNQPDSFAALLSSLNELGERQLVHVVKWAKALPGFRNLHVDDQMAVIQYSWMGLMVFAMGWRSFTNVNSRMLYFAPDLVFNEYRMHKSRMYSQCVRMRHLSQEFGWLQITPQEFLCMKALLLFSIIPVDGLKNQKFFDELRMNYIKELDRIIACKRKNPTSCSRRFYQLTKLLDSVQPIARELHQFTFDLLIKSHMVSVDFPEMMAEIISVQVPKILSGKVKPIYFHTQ

Biological target: human AR (Homo sapiens (Human), UniProt P10275)
Experiment: AR antagonism, reporter gene assay in hAR/HEK293 cells
Assay type: cell-based
Settings: with submaximal testosterone (usually 0.45 nM), luciferase reporter, 24 incubation

| Compound | IC50 [nM] |
| --- | --- |
| Cc1cc(-c2ccn(CCNC(=O)c3cc(-c4cccnc4)n[nH]3)n2)ccc1C#N [Example 53, N-(2-(3-(4-cyano-3-methylphenyl)-1H-pyrazol-1-yl)ethyl)-3-(pyridin-3-yl)-1H-pyrazole-5-carboxamide] | 88 |
| CC(=O)c1cc(C(=O)NC[C@H](C)n2ccc(-c3cc(F)c(C#N)c(F)c3)n2)[nH]n1 [Example 219, (S)-3-acetyl-N-(2-(3-(4-cyano-3,5-difluorophenyl)-1H-pyrazol-1-yl)propyl)-1H-pyrazole-5-carboxamide] | 146 |

Test system: VCaP prostate cancer cell line
Experiment: Inhibition of mibolerone-induced VCaP cell proliferation (WST-1)
Assay type: cell-based
Settings: mibolerone-induced (usually 0.1 nM) proliferation, 4-5 days
Protocol: The IC50 value of the test compound for inhibition of mibolerone-induced VCaP cell proliferation was measured.
Cell Proliferation Assays
The ability of test compounds to inhibit prostate, cancer cell growth was studied by measuring inhibition of cell proliferation using androgen-sensitive VCaP prostate cancer cell line. […] Cell proliferation was measured using WST-1 Cell Proliferation Assay (Roche).

| Compound | IC50 [nM] |
| --- | --- |
| Bicalutamide [reference compound] | 2000 to 3000 |

Biological target: rat androgen receptor (Rattus norvegicus (Rat), UniProt P15207)
Experiment: Androgen receptor binding assay (competition binding with [3H]mibolerone)
Settings: cytosolic lysates from ventral prostates of castrated rats; 1 nM [3H]mibolerone; Cheng and Prusoff; read-out: AR binding affinity Ki

| Compound | Ki [nM] |
| --- | --- |
| O=C(NCCc1ccc(-c2ccc(Cl)c(Cl)c2)o1)c1cc(C(=O)N2CCOCC2)n[nH]1 [Example 8, N-(2-(5-(3,4-dichlorophenyl)furan-2-yl)ethyl)-3-(morpholine-4-carbonyl)-1H-pyrazole-5-carboxamide] | 62 |
| CC(=O)c1cc(C(=O)N[C@@H](C)Cn2ccc(-c3ccc(C#N)c(Cl)c3)n2)[nH]n1 [Example 34, (S)-3-acetyl-N-(1-(3-(3-chloro-4-cyanophenyl)-1H-pyrazol-1-yl)propan-2-yl)-1H-pyrazole-5-carboxamide] | 16 |
| N#Cc1ccc(-c2ccn(CCNC(=O)c3cc(-c4cccnc4)n[nH]3)n2)cc1C#N [Example 52, N-(2-(3-(3,4-dicyanophenyl)-1H-pyrazol-1-yl)ethyl)-3-(pyridin-3-yl)-1H-pyrazole-5-carboxamide] | 27 |
| Cc1nc(-c2cc(C(=O)N[C@@H](C)Cn3ccc(-c4ccc(C#N)c(Cl)c4)n3)n[nH]2)cs1 [Example 94, (S)—N-(1-(3-(3-chloro-4-cyanophenyl)-1H-pyrazol-1-yl)propan-2-yl)-5-(2-methylthiazol-4-yl)-1H-pyrazole-3-carboxamide] | 8 |
| C[C@H](Cn1ccc(-c2ccc(C#N)c(Cl)c2)n1)NC(=O)c1csc(N2CCOCC2)n1 [Example 132, (R)—N-(1-(3-(3-chloro-4-cyanophenyl)-1H-pyrazol-1-yl)propan-2-yl)-2-morpholinothiazole-4-carboxamide] | 29 |
| Cc1c(-c2ccn(C[C@H](C)NC(=O)c3csc(C(C)O)n3)n2)ccc(C#N)c1Cl (stereo partly drawn) [Example 186, N—((S)-1-(3-(3-chloro-4-cyano-2-methylphenyl)-1H-pyrazol-1-yl)propan-2-yl)-2-(1-hydroxyethyl)thiazole-4-carboxamide] | 3 |
| CC(=O)c1cc(C(=O)NC[C@H](C)n2ccc(-c3cc(F)c(C#N)c(F)c3)n2)[nH]n1 [Example 219, (S)-3-acetyl-N-(2-(3-(4-cyano-3,5-difluorophenyl)-1H-pyrazol-1-yl)propyl)-1H-pyrazole-5-carboxamide] | 40 |
| C[C@@H](Cn1ccc(-c2ccc(C#N)c(Cl)c2)n1)NC(=O)c1[nH]nc2c1COCC2 [Example 338, (S)—N-(1-(3-(3-chloro-4-cyanophenyl)-1H-pyrazol-1-yl)propan-2-yl)-2,4,6,7-tetrahydropyrano[4,3-c]pyrazole-3-carboxamide] | 14 |
